Measurements from patent US20220016215A1, “GIP RECEPTOR AGONIST PEPTIDE COMPOUNDS AND USES THEREOF” (TAKEDA PHAARMACEUTICAL COMPANY LIMITED, priority 2018, published 2022).

By UniProt entry, the sequences of proteins in these tests, tags left out. Residues count along the entry.
UniProt P43220, 24-463: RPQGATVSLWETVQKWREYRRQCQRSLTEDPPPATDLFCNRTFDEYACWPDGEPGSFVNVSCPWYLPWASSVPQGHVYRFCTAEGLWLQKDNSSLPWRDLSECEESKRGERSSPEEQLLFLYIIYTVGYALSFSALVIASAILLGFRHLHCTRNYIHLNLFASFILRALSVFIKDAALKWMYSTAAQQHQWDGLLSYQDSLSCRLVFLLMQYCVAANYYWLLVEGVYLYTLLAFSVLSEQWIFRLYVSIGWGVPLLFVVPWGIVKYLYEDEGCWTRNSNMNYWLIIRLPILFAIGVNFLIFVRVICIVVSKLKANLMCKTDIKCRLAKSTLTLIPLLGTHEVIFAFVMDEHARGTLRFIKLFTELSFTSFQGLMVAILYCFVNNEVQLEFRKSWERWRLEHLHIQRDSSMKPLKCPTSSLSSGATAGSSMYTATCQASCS

Key:
human GIPR = molecular target: T1, human GIPR (Homo sapiens, UniProt P48546); test: Agonist activity on human GIPR, CRE-luciferase reporter assay (increase in intracellular cAMP as indicator); format: cell-based; conditions: hGIPR/CRE-LUC/CHO-K1 cells, 4 h incubation; for EC50: read-out: GIPR EC50 nM (A)
T1 construct: expressed in transfected cells
T1 sequence (P48546 22-466): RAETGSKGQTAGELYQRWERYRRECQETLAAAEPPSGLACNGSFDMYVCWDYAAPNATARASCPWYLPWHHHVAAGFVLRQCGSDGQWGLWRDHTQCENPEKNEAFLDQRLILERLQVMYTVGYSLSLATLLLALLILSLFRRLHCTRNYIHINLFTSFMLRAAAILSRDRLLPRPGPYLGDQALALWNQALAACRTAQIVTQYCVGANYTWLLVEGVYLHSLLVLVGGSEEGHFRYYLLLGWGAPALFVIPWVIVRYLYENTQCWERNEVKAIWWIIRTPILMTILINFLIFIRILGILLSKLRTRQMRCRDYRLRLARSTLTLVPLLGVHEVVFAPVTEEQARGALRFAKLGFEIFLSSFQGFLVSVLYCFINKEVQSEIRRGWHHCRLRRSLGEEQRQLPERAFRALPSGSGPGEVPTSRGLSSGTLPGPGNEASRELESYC

human GLP-1R = human GLP-1R (Homo sapiens, UniProt P43220); test: Agonist activity on human GLP-1R, CRE-luciferase reporter assay (increase in intracellular cAMP as indicator); format: cell-based; set-up: expressed in transfected cells; conditions: hGLP-1R/CRE-luc/CHO-K1 cells, 4 h incubation; for EC50: read-out: GLP1R EC50 nM (B)

Substance | GIPR pEC50 (human GIPR) | EC50 (human GIPR) [nM] | GLP1R pEC50 (human GLP-1R) | EC50 (human GLP-1R) [nM]
YAibEGTFISDYS(Lys-(ethylene glycol)2-C15 diacid)ALDKIHQQDFVNWLLAQRG-OH [Compound 32] | 11.77 | 0.0017 | 6.85 | 141
YAibEGTFISDYSIALDK(Lys-(ethylene glycol)2-C15 diacid)HQQDFVNWLLAQRG-OH [Compound 26] |  | 0.001 |  | 
YAibEGTFISDYSIALDKI(Lys-(ethylene glycol)2-C15 diacid)QQDFVNWLLAQRG-OH [Compound 25] |  | < 0.001 |  | 
YAibEGTFISDYSIALDKIHQQ(Lys-(ethylene glycol)2-C15 diacid)FVNWLLAQR-NH2 [Compound 28] |  | < 0.001 | 7.13 | 74.1
YAibEGTFISDYSIALDKIHQQ(Lys-(ethylene glycol)2-C15 diacid)FVNWLLAQRG-OH [Compound 24] |  | < 0.001 | 7.48 | 33.1
YAibEGTFISDYSIALDKIHQQ(Lys-(ethylene glycol)2-C15 diacid)FVNWLLAQRPSSGAPPPS-NH2 [Compound 29] |  | < 0.001 | 7.01 | 97.7
YAibEGTFISDYSIALDKIHQQDFVNWLLAQ(Lys-(ethylene glycol)2-C15 diacid)G-OH [Compound 31] | 11.77 | 0.002 | 6.85 | 141
YAibEGTFISDYSIELDK(Lys-(ethylene glycol)2-C15 diacid)AAQAFIEWLLAQGPSSGAPPPS-NH2 [Compound 20] | 11.82 | 0.002 | 6.37 | 427
YAibEGTFISDYSIELEK(Lys-(ethylene glycol)2-C15 diacid)AQRAFVEWLLAQGPSSGAPPPS-NH2 [Compound 23] |  | 0.001 | 8.57 | 2.69
YAibEGTFTSDYSIAibLDKIAQ(Lys-(ethylene glycol)2-C20 diacid)AFVQWLIAGGPSSGAPPPS-NH2 [Compound 18] |  |  | 11.08 | 
YAibEGTFTSDYSIAibLDKIAQ(Lys-(ethylene glycol)2-C20 diacid)AFVQWLIAGGPSSGAPPPS-NH2 [Compound 34] | 12.00 | 0.001 | 10.77 | < 0.02
YD-AlaEGTFISDYSIAMD(Lys-(OEG-gGlu)2-Oda)IHQQDFVNWLLAQKGKICNDWKHNIIQ-NH2 [Compound 13] | 10.62 | 0.024 | 6.29 | 513
